## AlphaSeq binding of Ab-95 light chain variants to a spike HR2 peptide

Data: MIT Lincoln Laboratory AlphaSeq set, Engelhart et al. 2022, doi:10.1038/s41597-022-01779-4, as distributed in FLAb.

The target is the same throughout: PDVDLGDISGINAS, from the HR2 region of SARS-CoV-2 spike.

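The parent was found by panning a naive human phage display library on the peptide. The library (AAYL52) carries one to three amino acid substitutions per variant, with no insertions or deletions. AlphaSeq pools MATa yeast showing the antibodies with MATalpha yeast showing the peptide. Binding brings cells together so that they mate, and sequencing counts the barcode pairs among the diploids. Read counts were normalised to the haploid input and turned into Kd by a linear fit to BCL2-family pairs of known affinity, for each replicate. Mating was done three times.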

Each scFv is VH, a (GGGGS)3 linker, VL, as in the parent Ab-95, and differs from it in the CDRs of the light chain only.
VH: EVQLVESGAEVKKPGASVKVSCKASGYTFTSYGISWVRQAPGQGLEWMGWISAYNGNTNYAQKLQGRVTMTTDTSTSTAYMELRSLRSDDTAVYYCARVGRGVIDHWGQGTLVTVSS
VL: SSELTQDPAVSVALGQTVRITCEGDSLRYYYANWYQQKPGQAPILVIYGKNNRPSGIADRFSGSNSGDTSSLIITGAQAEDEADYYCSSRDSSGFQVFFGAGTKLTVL

Substitutions are numbered in sequence along the VL above, starting at 1 (not Kabat). This list gathers variants with a substitution at S55 (VL, numbered from residue 1). Values are apparent Kd, the geometric mean of the replicates that gave a signal; lower means stronger binding. "nd" means that the variant was in the library but no mating with the target was seen in any replicate; the authors take this as a sign of poor binding, and no number exists.

* N51D+S55Y = 220 nM (3 of 3 replicates)
* N33G+N52S+S55T = 180 nM (3 of 3 replicates)
* P54L+S55R = 9.6 µM (3 of 3 replicates)
* S55N+S89Q+G94Y = nd (0 of 3 replicates)
* G49K+S55A = 50 µM (2 of 3 replicates)
* N52Y+S55P+S93H = 22 µM (2 of 3 replicates)
* L27K+S55V+F95I = nd (0 of 3 replicates)
* Y31I+S55F+S89G = 650 nM (3 of 3 replicates)
* Y31C+R53H+S55Y = 320 nM (3 of 3 replicates)
* S55C+S93A+F98T = 660 nM (3 of 3 replicates)
* S55Y+S93N+F98N = nd (0 of 3 replicates)
* G24K+S55F = 23 µM (2 of 3 replicates)
* G24L+Y31W+S55K = 22 µM (3 of 3 replicates)
* S55P+R90Y+S92N = 3.0 µM (1 of 3 replicates)
* S55R+F95C+Q96C = 450 nM (3 of 3 replicates)
* G49H+P54D+S55F = 190 µM (1 of 3 replicates)
* S55W+S89Q+Q96W = 2.8 µM (3 of 3 replicates)
* E23C+S55D = 43 nM (3 of 3 replicates)
* S55W+S89K+S92P = 48 µM (2 of 3 replicates)
* D25N+S55F+V97K = 13 µM (2 of 3 replicates)
* N51I+P54N+S55F = 10 µM (1 of 3 replicates)
* R28D+S55D+S89N = 1.6 µM (3 of 3 replicates)
* R28T+P54M+S55I = 860 nM (3 of 3 replicates)
* K50Q+S55G+V97M = 1.0 µM (3 of 3 replicates)
* L27E+R28Q+S55N = nd (0 of 3 replicates)
* Y30Q+S55F = 15 nM (3 of 3 replicates)
* N51C+S55Y+F95P = 1.1 µM (3 of 3 replicates)
* D25M+A32T+S55P = 360 nM (3 of 3 replicates)
* P54D+S55K+S93V = 35 µM (3 of 3 replicates)
* S26A+A32R+S55I = 870 nM (3 of 3 replicates)
* S55F+F95C+Q96L = 9.0 µM (1 of 3 replicates)
* L27R+Y30S+S55K = 240 nM (3 of 3 replicates)
* G24F+Y29G+S55M = 280 nM (3 of 3 replicates)
* E23K+Y31P+S55F = 2.5 nM (3 of 3 replicates)
* R28D+A32E+S55L = 25 µM (2 of 3 replicates)
* Y31H+K50A+S55K = 110 nM (3 of 3 replicates)
* G24F+S55D = 82 nM (3 of 3 replicates)
* G24M+A32V+S55V = 550 nM (3 of 3 replicates)
* N33W+N52A+S55I = 770 nM (3 of 3 replicates)
* E23L+R28K+S55T = 2.5 µM (2 of 3 replicates)
* K50W+P54S+S55M = 10 µM (2 of 3 replicates)

The first 4 entries again:

* N51D+S55Y -> 220 nM (3 of 3 replicates)
* N33G+N52S+S55T -> 180 nM (3 of 3 replicates)
* P54L+S55R -> 9.6 µM (3 of 3 replicates)
* S55N+S89Q+G94Y -> nd (0 of 3 replicates)

Background: pairings of library AAYL52 with three empty control strains gave a value in 28% of cases (median 8.2 µM, 5th percentile 800 nM). Values in that range, when seen in few replicates, are hard to tell from nonspecific mating. Parent in this assay: reference entry 200 nM, copy in this library 180 nM.